Measured values from patent publication US6074625A, “Boron-containing hormone analogs and methods of their use in imaging or killing cells having hormone receptors” (Neutron Therapies Inc., priority 1997, dated 2000).

Biological target: T1, androgen receptors (Rattus norvegicus, UniProt P15207)
T1 construct: from tissue; host or cells: rat ventral prostate cytosol
T1 sequence (P15207 1-902): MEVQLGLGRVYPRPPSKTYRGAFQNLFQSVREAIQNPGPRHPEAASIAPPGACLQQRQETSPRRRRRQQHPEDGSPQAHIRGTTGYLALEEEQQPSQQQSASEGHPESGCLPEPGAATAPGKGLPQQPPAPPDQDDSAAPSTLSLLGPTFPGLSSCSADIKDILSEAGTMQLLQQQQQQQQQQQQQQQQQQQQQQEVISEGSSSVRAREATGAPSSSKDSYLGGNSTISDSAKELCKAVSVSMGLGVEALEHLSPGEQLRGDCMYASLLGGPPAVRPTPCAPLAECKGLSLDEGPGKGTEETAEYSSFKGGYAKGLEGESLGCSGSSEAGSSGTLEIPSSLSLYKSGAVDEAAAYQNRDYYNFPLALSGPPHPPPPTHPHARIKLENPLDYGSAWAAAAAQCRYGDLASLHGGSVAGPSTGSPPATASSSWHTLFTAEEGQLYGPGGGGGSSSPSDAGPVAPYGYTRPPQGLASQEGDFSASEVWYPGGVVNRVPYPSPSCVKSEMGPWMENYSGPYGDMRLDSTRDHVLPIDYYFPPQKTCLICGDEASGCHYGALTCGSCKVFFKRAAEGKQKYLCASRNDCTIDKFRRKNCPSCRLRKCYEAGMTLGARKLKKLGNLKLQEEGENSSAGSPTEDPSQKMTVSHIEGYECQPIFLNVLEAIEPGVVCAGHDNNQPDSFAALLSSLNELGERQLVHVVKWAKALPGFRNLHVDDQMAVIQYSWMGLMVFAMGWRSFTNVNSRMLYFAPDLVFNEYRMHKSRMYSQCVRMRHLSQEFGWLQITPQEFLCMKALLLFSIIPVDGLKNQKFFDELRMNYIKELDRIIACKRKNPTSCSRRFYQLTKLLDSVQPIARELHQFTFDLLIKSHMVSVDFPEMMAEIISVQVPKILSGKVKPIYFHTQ
Assay: Androgen receptor binding: inhibition of [^3 H] mibolerone binding in rat ventral prostate cytosol
Conditions: 2 nM [^3 H] mibolerone, 18 hrs at 4° C
Method: The specificity of the compound of Example I for androgen receptors was determined in a standard androgen receptor assay. See Schilling et al., "The Use of Radioactive 7α, 17α-dimethyl-19-nortestosterone (Mibolerone) in the Assay of Androgen Receptors," The Prostate, 5:581-588 (1984); Traish et al., "Binding of 7α, 17-α-dimethyl- 19-nortestosterone (Mibolerone) to Androgen and Progesterone Receptors in Human and Animal Tissues," Endocrinology 118:1327-1333 (1986). Cytosol prepared from rat ventral prostate was incubated with 2 nM [^3 H] mibolerone (DMNT) for 18 hrs at 4° C. The reaction mixture was then incubated with a hydroxy apatite slurry containing various concentrations of N-(2'-closo-carboranylacetyl)-3-trifluoromethyl-4-nitroaniline 3 from Example 1, as shown below. The mixtures were then filtered through glass fiber filters, washed three times and counted to determine the inhibition of mibolerone binding to the androgen receptors.

With “N-(2'-closo-carboranylacetyl)-3-trifluoromethyl-4-nitroaniline [Compound 3]” the “[^3 H] Mibolerone Binding Inhibition, % Inhibition” value (boron agent 0.01 μM) was 3%, the “[^3 H] Mibolerone Binding Inhibition, % Inhibition” value (boron agent 0.1 μM) was 3% and the “[^3 H] Mibolerone Binding Inhibition, % Inhibition” value (boron agent 1 μM) was 7%. The “[^3 H] Mibolerone Binding Inhibition, % Inhibition” value (boron agent 10 μM) was 29% and the “[^3 H] Mibolerone Binding Inhibition, % Inhibition” value (boron agent 100 μM) was 85%.
